Results as given in PubChem BioAssay AID624291 (National Center for Advancing Translational Sciences (NCATS), 2012).
Only a part is listed here, and it is no random draw. Records with an inconclusive call do not appear. Active and inactive are the calls of the source. Calls follow the shape of the dose curve; as a rule, active = well fitted activation curve with a large enough effect; inconclusive = small, poorly fitted or top-dose-only effect; inactive = no such curve, though single readings can be large or run the other way.

assay: qHTS for Activators of Integrin-Mediated Alleviation for Muscular Dystrophy; conditions: alpha7betagal myoblasts, beta-gal FDG fluorescence, 48 h; at 38.3 µM (top of the series) unless noted;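 also: 100% = response of the positive control SU9516; nearly all actives have a fitted effect of over 60% in size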

Row | Structure (SMILES) | activation
1 | CN(C)C(=O)OCCc1n(C)cc[n+]1C | inactive: -2.56%
2 | CC(C)c1nc(Nc2ccccc2)n(P(=O)(N(C)C)N(C)C)n1 | inactive: -9.98%
3 | CC(C)=N/N=C(\N)N[N+](=O)[O-] | inactive: 14.9%
4 | CC1CCN(C(=O)Oc2c(Cl)cc(Cl)c3cccnc23)CC1 | inactive: -15.8%
5 | c1cc(-c2nn[nH]n2)ccc1-c1nn[nH]n1 | inactive: -1.51%
6 | Nc1ccc([As](=O)(O)c2ccc(N)cc2)cc1 | inactive: 14.3%
7 | CCN(/C(=N/P(=O)(N1CCOCC1)N1CCOCC1)N1CCOCC1)c1ccc(OC)cc1 | inactive: -3.78%
8 | O=[N+]([O-])c1cccc2n[nH]nc12 | inactive: 20.4%
9 | CC(=O)N1C2C3N(C(C)=O)C1C1N(C(C)=O)C(C(N1C(C)=O)N3C(C)=O)N2C(C)=O | inactive: 20%
10 | CCc1nc2c(n1)c1c(non1O)c1c2no[n+]1[O-] | inactive: -49.8%
11 | O=[N+]([O-])c1cc([N+](=O)[O-])c(CCNc2ccccc2)c([N+](=O)[O-])c1 | inactive: -6.67%
12 | Cc1ccc(NP(=O)(Oc2ccccc2)Oc2ccccc2)nc1 | inactive: -17.8%
13 | COc1ccc(C2=NCC(CBr)S2)cc1 (stereo not given) | inactive: -16.3%
14 | COC(=O)C1(C)COP(=O)(Nc2ccccc2)OC1 (stereo not given) | inactive: 13.8%
15 | O=[N+]([O-])c1cccc(NC2=NCC(CBr)S2)c1 (stereo not given) | inactive: -12.5%
16 | O=C(O)CNc1ccc([As](=O)(O)O)cc1 | inactive: -2.6%
17 | CC(C)(C)C(=O)NC(Sc1ccncn1)C(Cl)(Cl)Cl (stereo not given) | inactive: -19%
18 | O=[N+]([O-])c1ncn(CCn2ncnc2[N+](=O)[O-])n1 | inactive: 0%
19 | O=C(Nc1cc([As](=O)(O)O)ccc1O)c1ccccc1 | inactive: 7.16%
20 | O=P1(N(CCCl)CCCl)OCCCS1 (stereo not given) | inactive: -2.28%
21 | CCN(N=Nc1nonc1N)c1nonc1N | inactive: -0.589%
22 | Nc1cccc2ccc([As](=O)(O)O)cc12 | inactive: -3.08%

Row | Structure (SMILES) | activation
23 | Cc1ccc(NP(=O)(Oc2ccccc2F)Oc2ccccc2F)nc1 | inactive: 8.43%
24 | Cc1cc(SC(NC(=O)c2ccc(F)cc2)C(Cl)(Cl)Cl)ncn1 (stereo not given) | inactive: -14.2%
25 | CCOP(=O)(Nc1ccccc1)OCC | inactive: -1.58%
26 | CCCC1OP(N)(=O)OCC1CC (stereo not given) | inactive: -16.8%
27 | CC(=O)Nc1ccc([As](=O)(O)O)cc1 | inactive: 4.5%
28 | O=C(O)c1ccccc1[As](=O)(O)O | inactive: 2.1%
29 | O=P(Nc1nc2ccc(Cl)cc2s1)(c1ccccc1)c1ccccc1 | inactive: 15.8%
30 | CN(C)P(=O)(N(C)C)n1c(Nc2ccccc2)nnc1-c1ccccc1 | inactive: -10.9%
31 | Nc1cc(N)c2nonc2c1[N+](=O)[O-] | inactive: 20.1%
32 | CC(C)CC(=O)NC(Sc1ccc(Cl)cc1)C(Cl)(Cl)Cl (stereo not given) | inactive: 7.5%
33 | O=C(NC(Sc1ccncn1)C(Cl)(Cl)Cl)c1ccccc1 (stereo not given) | inactive: -11.9%
34 | Oc1ccccc1CNc1ccccn1 | inactive: 0.304%
35 | Cc1ccc(OP(=O)(Nc2nccs2)Oc2ccc(C)cc2)cc1 | inactive: 11.6%
36 | COc1ccccc1OP(=O)(Nc1ccc(C)cn1)Oc1ccccc1OC | inactive: 15.8%
37 | CN1CCCC(OC(=O)C(c2ccccc2)c2ccccc2)C1 (stereo not given) | inactive: -9.32%
38 | Clc1ccc(Cl)c(NC2=NCC(CBr)S2)c1 (stereo not given) | inactive: -23.1%
39 | NC(=O)c1cc([N+](=O)[O-])cc([N+](=O)[O-])c1N | inactive: 2.21%
40 | Cc1ccc(N/C(=N/P(=O)(N2CCOCC2)N2CCOCC2)N2CCOCC2)cc1 | inactive: -1.01%
41 | CC(=O)Nc1ccc(Oc2c([N+](=O)[O-])cc([N+](=O)[O-])cc2[N+](=O)[O-])cc1 | inactive: 14.6%
42 | CC(=O)Nc1ccc([As](=O)(O)O)c(O)c1 | inactive: -3.07%
43 | COC(=O)C1(C)COP(=O)(NCc2ccccc2)OC1 (stereo not given) | inactive: 23.6%
44 | N#C/C(=C\c1ccc(N(CCBr)CCBr)cc1)C(N)=O | inactive: -25%

Row | Structure (SMILES) | activation
45 | C[C@H]1OP(=O)(Oc2ccccc2)C[C@@H]2O[C@@H]21 (stereo not given in full) | inactive: 16.9%
46 | C[C@@H]1C=CCP(=O)(Oc2ccccc2)O1 (stereo not given in full) | inactive: 7.21%
47 | Cc1ccccc1CN(C)C(=O)COC(=O)C(O)(c1ccccc1)c1ccccc1 | inactive: -7.29%
48 | CCc1cc(O)c([N+](=O)[O-])c(C)c1[N+](=O)[O-] | inactive: 10.9%
49 | CC(C)(C)C(=O)NC(Sc1ccccc1)C(Cl)(Cl)Cl (stereo not given) | inactive: 13.4%
50 | CCOc1ccc(C2=NCC(CBr)S2)cc1 (stereo not given) | inactive: 8.75%
51 | O=P1(Nc2nc3ccc(Cl)cc3s2)COc2ccccc2O1 (stereo not given) | inactive: 2.92%
52 | O=c1c2cc([N+](=O)[O-])ccc2[nH]c2c([N+](=O)[O-])cc([N+](=O)[O-])cc12 | inactive: -67%
53 | CN(C)C(=O)Oc1noc2ccccc12 | inactive: -13.9%
54 | CC(NC(=O)COC(=O)C(O)(c1ccccc1)c1ccccc1)c1ccccc1 (stereo not given) | inactive: 2.42%
55 | Cc1ccccc1OP(=O)(Nc1ccccn1)Oc1ccccc1C | inactive: -12.7%
56 | CC(=O)NC(SC(=S)N(CC(C)C)CC(C)C)C(Cl)(Cl)Cl (stereo not given) | inactive: 10.4%
57 | Cc1ccc(OP(=O)(Nc2ccccn2)Oc2ccc(C)cc2)cc1 | inactive: -18.2%
58 | COC(=O)c1cc2c(s1)N=C(c1ccccc1)N(C)P2(=O)N1CCOCC1 (stereo not given) | inactive: -25.6%
59 | CCC(=O)N1C2C3N(C(=O)CC)C1C1N(C(=O)CC)C(C(N1C(=O)CC)N3C(=O)CC)N2C(=O)CC | inactive: -2.85%
60 | O=C(OC1CN2CCC1CC2)c1ccccc1 (stereo not given) | inactive: -12.2%
61 | O=P1(N(CCCl)CCCl)OCCC2CCCCN21 (stereo not given) | inactive: -0.628%
62 | CCNC(=S)/N=C(\N)N[N+](=O)[O-] | inactive: -23.8%
63 | O=C(NC1CCS(=O)(=O)C1)NP(=S)(Oc1ccccc1)Oc1ccccc1 (stereo not given) | inactive: -0.271%
64 | Cc1ccc(NP(=O)(Oc2cccc(C)c2)Oc2cccc(C)c2)nc1 | inactive: 2.92%
65 | c1ccc(-c2nn[nH]n2)c(-c2nn[nH]n2)c1 | inactive: 12.3%
